Measured values from patent US9611262B2, “Substituted 2-azabicycles and their use as orexin receptor modulators” (JANSSEN PHARMACEUTICA NV, priority 2014, dated 2017).

Sequences of proteins named here, by UniProt entry; tags and fusion partners are left off.
UniProt O43613, whole entry: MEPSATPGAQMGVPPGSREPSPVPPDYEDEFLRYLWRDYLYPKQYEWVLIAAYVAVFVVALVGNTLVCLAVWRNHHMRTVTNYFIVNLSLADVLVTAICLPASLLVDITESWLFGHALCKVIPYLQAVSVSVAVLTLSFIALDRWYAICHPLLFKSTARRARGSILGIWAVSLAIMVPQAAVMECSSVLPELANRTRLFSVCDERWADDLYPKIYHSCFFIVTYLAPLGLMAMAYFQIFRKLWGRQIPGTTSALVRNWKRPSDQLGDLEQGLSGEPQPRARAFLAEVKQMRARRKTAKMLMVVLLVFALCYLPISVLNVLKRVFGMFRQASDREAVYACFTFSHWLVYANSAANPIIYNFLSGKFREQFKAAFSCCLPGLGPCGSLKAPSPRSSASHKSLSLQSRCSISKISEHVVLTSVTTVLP
UniProt O43614, whole entry: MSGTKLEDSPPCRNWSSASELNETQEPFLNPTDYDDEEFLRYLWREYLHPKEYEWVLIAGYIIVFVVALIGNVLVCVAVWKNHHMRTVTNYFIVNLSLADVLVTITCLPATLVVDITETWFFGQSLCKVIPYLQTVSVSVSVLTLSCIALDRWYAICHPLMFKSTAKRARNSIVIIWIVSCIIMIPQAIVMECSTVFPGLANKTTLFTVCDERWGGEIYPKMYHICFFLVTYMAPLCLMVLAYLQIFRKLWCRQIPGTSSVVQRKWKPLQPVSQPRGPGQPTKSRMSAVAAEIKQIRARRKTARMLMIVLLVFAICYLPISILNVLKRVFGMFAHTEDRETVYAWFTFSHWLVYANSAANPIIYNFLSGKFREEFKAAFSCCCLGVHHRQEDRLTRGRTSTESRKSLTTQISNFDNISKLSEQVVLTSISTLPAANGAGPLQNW

Columns and labels:
rat orexin 1 receptor = rat orexin 1 receptor (Rattus norvegicus, UniProt P56718); test: Rat orexin 1 receptor radioligand binding (competitive); settings: HEK293 cells stably expressing rat orexin 1 receptor; 4 nM radioligand; averages of 2-20 runs; read-out: rOX1 Ki
Procedure: (§1) The in vitro affinity of the compounds of the invention for the rat/human orexin 1 and human orexin 2 receptors was determined by competitive radioligand binding using [^3H](1-(5-(2-fluoro-phenyl)-2-methyl-thiazol-4-yl)-1-((S)-2-(5-phenyl-(1,3,4)oxadiazol-2-ylmethyl)-pyrrolidin-1-yl)-methanone) (Langmead et al., 2004) and [^3H]EMPA (n-ethyl-2[96-methoxy-pyridin-3-yl)-(toluene-2-sulfonyl)-amino]-N-pyridin-3-ylmethyl acetamide), respectively (Langmead et al., 2004, British Journal of Pharmacology 141:340-346; Malherbe et al., 2004, British Journal of Pharmacology 156:1326-41).
(§2) Data are analyzed using pc-Sandy macro and graphed on Graphpad Prism 5. For analysis, each concentration point is averaged from triplicate values and the averaged values are plotted on Graphpad Prism. The IC50 was determined by applying the following equation (GraphPad Prism 5.0, San Diego) for one site competition where X=log (concentration) and Y=specific binding. […] Graphpad Prism calculates Ki value from IC50 and the pre-determined Kd values for [^3H]— (1-(5-(2-fluoro-phenyl)-2-methyl-thiazol-4-yl)-1-((S)-2-(5-phenyl-(1,3,4)oxadiazol-2-ylmethyl)-pyrrolidin-1-yl)-methanone) and [^3H]-EMPA. […]

human orexin 1 receptor = human orexin 1 receptor (Homo sapiens (Human), UniProt O43613); test: Human orexin 1 receptor radioligand binding (competitive); settings: CHO cells stably expressing human orexin 1 receptor; 4 nM radioligand; averages of 2-20 runs; read-out: hOX1 Ki
Procedure: as §1, §2

human orexin 2 receptor = human orexin 2 receptor (Homo sapiens (Human), UniProt O43614); test: Human orexin 2 receptor radioligand binding ([3H]-EMPA competition); settings: HEK293 stably expressing human orexin 2 receptor; 2 nM [3H]-EMPA; averages of 2-20 runs; read-out: hOX2 Ki
Procedure: as §1
Data are analyzed using pc-Sandy macro and graphed on Graphpad Prism 5. For analysis, each concentration point is averaged from triplicate values and the averaged values are plotted on Graphpad Prism. The IC50 was determined by applying the following equation (GraphPad Prism 5.0, San Diego) for one site competition where X=log (concentration) and Y=specific binding. Top denotes the total [^3H]— (1-(5-(2-fluoro-phenyl)-2-methyl-thiazol-4-yl)-1-((S)-2-(5-phenyl-(1,3,4)oxadiazol-2-ylmethyl)-pyrrolidin-1-yl)-methanone) binding, bottom denotes the nonspecific [^3H]— (1-(5-(2-fluoro-phenyl)-2-methyl-thiazol-4-yl)-1-((S)-2-(5-phenyl-(1,3,4)oxadiazol-2-ylmethyl)-pyrrolidin-1-yl)-methanone) binding. Graphpad Prism calculates Ki value from IC50 and the pre-determined Kd values for [^3H]— (1-(5-(2-fluoro-phenyl)-2-methyl-thiazol-4-yl)-1-((S)-2-(5-phenyl-(1,3,4)oxadiazol-2-ylmethyl)-pyrrolidin-1-yl)-methanone) and [^3H]-EMPA. The Ki for each compound is then uploaded into 3DX. Each run comprises individual compounds in triplicate. The data in Table 1 and Table 2 represent averages from between 2-20 runs
Human Orexin 2 Receptor Radioligand Binding Studies
HEK293 stably expressing human orexin 2 receptor (Genebank accession number NM_001526) were grown to confluency in DMEM (Hyclone, cat # SH30022), 10% FBS, 1× Pen/Strep, 1× NaPyruvate, 10 mM HEPES, 600 μg/ml G418 media on 150 cm^2 tissue culture plates, washed with 5 mM EDTA in PBS (HyClone Dulbecco's Phosphate Buffered Saline 1× with Calcium and Magnesium, Cat # SH30264.01, hereafter referred to simply as PBS) and scraped into 50 ml tubes. After centrifugation (2K×G, 5 min at 4° C.), the supernatant was aspirated and the pellets frozen and stored at −80° C. Cells were resuspended in PBS in the presence of 1 tablet of protease inhibitor cocktail (Roche, Cat. #11836145001) per 50 mL. […] Compounds were solubilized in 100% DMSO (Acros Organics, Cat. #61042-1000) and tested over a range of 7 concentration (from 0.1 nM to 10 μM). The final concentration of DMSO in the reactions is equal to or less than 0.1%. Total and nonspecific binding was determined in the absence and presence of 10 μM almorexant. The total volume of each reaction is 200 μL (20 μL of diluted compounds, 80 μL of [^3H]-EMPA diluted in PBS and 100 μL of the cell suspension). Reactions were run for 60 min at room temperature and terminated by filtration through GF/C filter plates (PerkinElmer, Cat. #6005174) presoaked in 0.3% polyethylenimine using the cell harvester (PerkinElmer Filtermate). The plates were washed 3 times by aspirating 30 ml PBS through the plates. Plates were dried in 55° C. oven for 60 min, scintillation fluid was added, and the radioactivity was counted on a Topcount (Packard).

SMILES: Cc1ccc(-n2nccn2)c(C(=O)N2[C@H](C)[C@H]3C[C@@H](Oc4ccc(Cl)cn4)[C@@H]2C3)n1 [Example 122, [(1R,2R,4S,5R)-5-[(5-chloro-2-pyridyl)oxy]-2-methyl-3-azabicyclo[2.2.1]heptan-3-yl]-[6-methyl-3-(triazol-2-yl)-2-pyridyl]methanone]
- Ki (rat orexin 1 receptor): 3 nM
- Ki (human orexin 1 receptor): 3 nM
- Ki (human orexin 2 receptor): 452 nM

SMILES: [2H]C([2H])([2H])[C@]1([2H])[C@H]2C[C@@H](Oc3ccc(C(F)(F)F)cn3)[C@H](C2)N1C(=O)c1ccccc1-n1nccn1 [Example 163, [(1R,2R,4S,5R)-2-deuterio-2-(trideuteriomethyl)-5-[[5-(trifluoromethyl)-2-pyridyl]oxy]-3-azabicyclo[2.2.1]heptan-3-yl]-[2-(triazol-2-yl)phenyl]methanone]
- Ki (rat orexin 1 receptor): 2 nM
